Source: PubChem BioAssay AID2435 (The Scripps Research Institute Molecular Screening Center, 2010)
Only a part is listed here, and it is no random draw. Activity calls are given as the source filed them.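 How the source made its calls: active means activation above the mean of all tested compounds plus 3 SD, cutoff set per screening run (cut at about 20% in these data); inactive means the rest.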

Amino acid sequences for entries named in this document (tags omitted).
UniProt P30559, whole entry: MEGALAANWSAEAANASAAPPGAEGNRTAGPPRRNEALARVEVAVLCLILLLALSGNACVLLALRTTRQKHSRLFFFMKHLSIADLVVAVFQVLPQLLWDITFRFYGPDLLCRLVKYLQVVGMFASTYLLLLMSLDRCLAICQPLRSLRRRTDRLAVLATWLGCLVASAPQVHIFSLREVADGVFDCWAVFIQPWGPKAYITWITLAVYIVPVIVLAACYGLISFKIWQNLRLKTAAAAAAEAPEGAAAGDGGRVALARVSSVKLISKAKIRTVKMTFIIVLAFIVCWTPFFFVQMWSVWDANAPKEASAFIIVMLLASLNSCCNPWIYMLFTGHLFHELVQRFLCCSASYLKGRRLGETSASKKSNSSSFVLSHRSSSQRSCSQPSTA

Molecular target: Oxytocin receptor (Homo sapiens) (UniProt P30559)
Assay: human OXTR agonists, primary screen, fluorescence, CHO-OTR cells, Fluo-8 calcium (AID 2435);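 further: peak over basal fluorescence ratio from a 100 s FLIPR kinetic read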
Settings: Fluo-8 calcium fluorescence, at 3 µM, hits give high values, normalized: DMSO 0%, oxytocin 100%

Row | SMILES | activation
1 | CP(=O)(OC12CC3CC(CC(C3)C1)C2)OC12CC3CC(CC(C3)C1)C2 | inactive: -2.33%
2 | CCOC(=O)c1ccc(NP(C)(=O)Oc2ccc(Cl)cc2)cc1 (configuration not stated) | inactive: 0.49%
3 | Nc1ccc2c(ccc3cccnc32)n1.O=[N+]([O-])c1cc([N+](=O)[O-])c(O)c([N+](=O)[O-])c1 | inactive: -0.22%
4 | CP(=O)(Oc1ccccc1)N1CCOC1=O (configuration not stated) | inactive: 1.07%
5 | CCc1ccc(OP(C)(=O)Nc2cccnc2)cc1 (configuration not stated) | inactive: -1.33%
6 | COc1ccccc1OP(C)(=O)Nc1c(C)n(C)n(-c2ccccc2)c1=O (configuration not stated) | inactive: -0.56%
7 | O=C(OCCCN1CCCC1)C(O)(c1ccccc1)C1CCCCC1 (configuration not stated) | inactive: 1.81%
8 | CCN(CC)CC(O)COC(=O)C(O)(c1ccccc1)C1CCCCC1 (configuration not stated) | inactive: 3.05%
9 | COc1ccc(OP(C)(=O)Nc2ccc(Br)cc2)cc1 (configuration not stated) | inactive: 4.27%
10 | CN(C)C(=O)c1c([N+](=O)[O-])cc([N+](=O)[O-])cc1[N+](=O)[O-] | inactive: 1.07%
11 | CP(=O)(Nc1ccc(Cl)cc1)Oc1ccc(F)cc1 (configuration not stated) | inactive: -0.7%
12 | CC(C)(C)c1ccc(OP(C)(=O)O)cc1 | inactive: 0.74%
13 | COc1ccccc1OP(C)(=O)Nc1ccccc1Br (configuration not stated) | inactive: -0.16%
14 | CN(C)CCOC(=O)C(O)(c1ccccc1)C1CCCC1 (configuration not stated) | inactive: 1.58%
15 | COc1ccc(OP(C)(=O)Nc2ccccn2)cc1 (configuration not stated) | inactive: 0.33%
16 | COc1ccccc1OP(C)(=O)Nc1ccc(Br)cc1 (configuration not stated) | inactive: 0.06%
17 | CCc1ccc(OP(C)(=O)O)cc1 | inactive: 1.93%
18 | CP(=O)(Nc1ccccn1)Oc1ccccc1 (configuration not stated) | inactive: 0.6%
19 | COc1ccccc1OP(C)(=O)Nc1ccc(C)cc1C (configuration not stated) | inactive: -1.08%
20 | O=[N+]([O-])c1cc([N+](=O)[O-])c(Nc2ccccn2)c([N+](=O)[O-])c1 | inactive: 1.36%
21 | Cc1c(NP(C)(=O)Oc2ccc(C(C)C)cc2)c(=O)n(-c2ccccc2)n1C (configuration not stated) | inactive: -1.04%
22 | COc1ccc(OP(C)(=O)Nc2ccccc2Br)cc1 (configuration not stated) | inactive: -0.16%
23 | COc1ccccc1OP(C)(=O)Nc1ccc(C)c(C)c1 (configuration not stated) | inactive: -1.08%
24 | Cc1cc(C)cc(OP(C)(=O)Nc2cccc(C(F)(F)F)c2)c1 (configuration not stated) | inactive: -2.61%
25 | CP(=O)(OCCOc1ccccc1)OCCOc1ccccc1 | inactive: 0.04%
26 | CP(=O)(Nc1ccc(Cl)cc1Cl)Oc1ccccc1 (configuration not stated) | inactive: -2.14%
27 | Cc1nc2ccc3ccccc3c2o1.O=[N+]([O-])c1cc([N+](=O)[O-])c(O)c([N+](=O)[O-])c1 | inactive: 2.01%
